The source of these data is patent publication EP4711365A1 (Shanghai Hansoh Biomedical Co., Ltd., priority 2023, dated 2024).

Amino acid sequences for entries named in this document (tags omitted). Residues count along the entry.
UniProt Q16552, 24-155 limits assumed: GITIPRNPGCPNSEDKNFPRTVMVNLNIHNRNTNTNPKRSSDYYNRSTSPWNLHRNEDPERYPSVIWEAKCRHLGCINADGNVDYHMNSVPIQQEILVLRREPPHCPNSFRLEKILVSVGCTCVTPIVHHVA

Experiment [1] concerns Groα secretion by HT-29 cells. The experiment is described as follows: Inhibition of Groα secretion by HT-29 cells stimulated with IL-17A (ELISA). To be noted: IL-17A 30 ng/ml, 48 hours, Groα in supernatant. The method, then:
Test example 2 Assay for inhibitory effect of compounds of the present invention against Groα secretion by HT-29 cells
Experimental objective: to measure the inhibitory effect of the compounds against Groα secretion by HT-29 cells, thereby evaluating the inhibition of the compounds on IL-17A pathway.
Experimental method: A cell suspension at 50,000 cells/ml was prepared, and 200 µl of the cell suspension was added to each well of a 96-well plate, i.e., 10,000 cells/well. The plate was cultured overnight. In the 96-well V-bottom plate, 5 mM compound solution was serially diluted 3-fold using DMSO, and the compound from each well was diluted 100-fold using a complete culture medium. IL-17A protein (R&D, #BT7955-025/CF) with a stock concentration of 100 µg/ml was diluted 333.33-fold using a complete culture medium. The compound and IL-17A were mixed at a volume ratio of 1:1 and incubated at 37°C for 30 minutes. […]
The mixture was incubated in a 37°C, 5% CO2 cell culture incubator for 48 hours. The concentration of Groα in the supernatant was determined by ELISA method using Human Groα Valukin Elisa kit (Biotechne, # VAL139), and the absorbance intensity at 450 nm was measured using a microplate reader (PE, EnVision2105). Data were analysed using GraphPad Prism 8.3.0.
Experimental data processing method: Data were analysed using GraphPad Prism 8.3.0. […]
(In general: An ELISA detects its analyte on a solid surface through an enzyme-linked reagent.)

In experiment [2] the target is human IL-17RA and IL-17A proteins (Homo sapiens, UniProt Q16552). Nature of the experiment: Competitive ELISA: blocking of binding between human IL-17RA and IL-17A. To be noted: coated IL-17A, IL-17RA 5 nM.

Each structure is given as a SMILES string. pIC50: −log10 of the molar value.

Take `C[C@H]1CC[C@H]([C@H](NC(=O)C2(F)CC2)C(=O)Nc2ncc([C@@H](CN3CC4CC3CO4)N3CC(F)(F)CNC3=O)s2)CC1` (single isomer, unassigned) [746]: the negative-log IC50 (pIC50) (commonly the negative decadic logarithm of the IC50, by convention in mol/L) in experiment [1] is 8.52; in experiment [2], 8.22.
As to `C[C@H]1CC[C@H]([C@H](NC(=O)C2(F)CC2)C(=O)Nc2ncc([C@@H](CN3CC4CC3CO4)N3CC(F)(F)CNC3=O)s2)CC1` (single isomer, unassigned) [747], the pIC50 in experiment [1] is 8.52; in experiment [2] it was 8.15.
